# PubChem BioAssay AID1499 (Sanford-Burnham Center for Chemical Genomics, 2009)
# By UniProt entry, the sequences of proteins in these tests, tags left out.
# UniProt P05107, whole entry, looked up: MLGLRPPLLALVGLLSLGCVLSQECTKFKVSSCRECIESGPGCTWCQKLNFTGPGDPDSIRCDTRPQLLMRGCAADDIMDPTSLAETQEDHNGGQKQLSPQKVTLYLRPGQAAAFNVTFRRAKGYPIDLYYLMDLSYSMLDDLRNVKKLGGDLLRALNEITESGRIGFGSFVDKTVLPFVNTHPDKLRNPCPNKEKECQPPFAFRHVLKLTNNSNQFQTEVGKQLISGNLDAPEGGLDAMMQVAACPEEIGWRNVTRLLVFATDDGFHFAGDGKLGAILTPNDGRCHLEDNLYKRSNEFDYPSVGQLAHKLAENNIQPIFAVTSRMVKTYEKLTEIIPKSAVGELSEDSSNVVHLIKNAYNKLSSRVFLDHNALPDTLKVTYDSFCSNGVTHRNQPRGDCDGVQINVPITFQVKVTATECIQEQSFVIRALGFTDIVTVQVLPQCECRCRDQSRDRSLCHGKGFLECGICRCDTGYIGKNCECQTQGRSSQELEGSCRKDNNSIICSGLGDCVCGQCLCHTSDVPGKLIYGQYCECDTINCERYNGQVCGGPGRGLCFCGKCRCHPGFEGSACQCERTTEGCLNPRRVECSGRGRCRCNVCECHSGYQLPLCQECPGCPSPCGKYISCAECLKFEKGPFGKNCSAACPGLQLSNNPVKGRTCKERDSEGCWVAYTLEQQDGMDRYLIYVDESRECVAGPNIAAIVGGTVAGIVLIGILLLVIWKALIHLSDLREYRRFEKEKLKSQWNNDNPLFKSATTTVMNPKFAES
# Only a part is listed here, and it is no random draw. Active and inactive are the calls of the source.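 How the source made its calls: active means 10 µM primary screen giving 50% or more activity, confirmed by 40% or more on retest at that dose; inactive means the rest.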
# Target: Integrin beta-2 (Homo sapiens) + Integrin alpha-M (Homo sapiens) (UniProt P05107+P11215)
# Test: agonists of integrin CD11b/CD18-fibrinogen binding – K562 cells, luminescence, primary screen (AID 1499)
# Conditions: K562 CD11b/CD18 adhesion to fibrinogen, ATPlite luminescence; at 10 µM; active compounds read high
row,Structure (SMILES),activation
1,O=C(NCC1(N2CCOCC2)CCCCC1)c1cc(=O)[nH]c2ccccc12,inactive: -1.6%
2,N#CC1(Nc2ccccc2)CCN(CCc2ccccc2)CC1,inactive: 10.8%
3,COc1ccc(NC2CCN(CCc3ccccc3)CC2)c(OC)c1,inactive: -6.1%
4,O=C(OC1CN2CCC1CC2)C1c2ccccc2Oc2ccccc21 (stereo not given),inactive: 0.6%
5,O=C(NCC1(N2CCOCC2)CCCCC1)c1cc2ccccc2o1,inactive: 2.7%
6,CCC(CO)(C(=O)OC1CN2CCC1CC2)c1ccccc1 (stereo not given),inactive: -1%
7,CCOc1ncccc1C(=O)NCC1(N2CCOCC2)CCCCC1,inactive: -5%
8,Fc1ccccc1NC1CCN(Cc2ccccc2)CC1,inactive: -2.5%
9,c1ccc(CN2CCC(Nc3ccccc3)CC2)cc1,inactive: -0.8%
10,N/C(=N\O)c1c(N)no[n+]1[O-],inactive: -1%
